The entries are a selection whose mix differs from that of the whole data set. Some structures show a salt or complex split into parts, the way the source records it. Calls of active or inactive are those of the source.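 The calls were made as follows: active = B-score under library mean minus 4 SD, starting fluorescence ratio at most library mean plus 5 SD; inactive = the rest.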

The chains behind the UniProt entries cited, without tags or fusion partners.
UniProt O14649, whole entry: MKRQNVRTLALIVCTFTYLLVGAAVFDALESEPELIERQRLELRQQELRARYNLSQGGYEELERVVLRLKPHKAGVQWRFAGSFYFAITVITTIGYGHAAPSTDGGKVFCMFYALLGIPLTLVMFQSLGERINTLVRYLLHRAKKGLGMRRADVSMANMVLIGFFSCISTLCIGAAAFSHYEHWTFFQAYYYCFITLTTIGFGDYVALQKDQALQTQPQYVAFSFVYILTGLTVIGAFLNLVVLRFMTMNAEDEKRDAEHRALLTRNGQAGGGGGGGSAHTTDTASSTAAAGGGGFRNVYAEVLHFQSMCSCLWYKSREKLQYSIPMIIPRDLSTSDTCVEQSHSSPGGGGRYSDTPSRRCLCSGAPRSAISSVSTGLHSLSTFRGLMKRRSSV

The assay deals with Potassium channel subfamily K member 3 (Homo sapiens) (UniProt O14649). Kind of assay: human KCNK3 channel inhibitors, primary screen, CHO cells, FluxOR thallium flux, B-score (AID 602410). The following applies: FluxOR fluorescence, at 10 µM.
In the case of `Cc1ccccc1NP(C)(=O)Nc1ccccc1C`, the molecule was classed as inactive.

For `CP(=O)(Nc1ccc2c(c1)OCCO2)Oc1ccccc1` (centres undefined), the result was inactive.

With `c1nnnn1CCn1cnnn1`, the molecule was called inactive.

With `CCOP(C)(=S)SCC(=O)NC(C)(CC)C(=O)O` (centres undefined), the call was inactive.

`O=P(Nc1nccs1)(c1ccccc1)c1ccccc1`: the molecule was called inactive.

Turning to `CC(C)C(=O)NC(Sc1ccccc1)C(Cl)(Cl)Cl` (centres undefined), the outcome was inactive.

In the case of `CP(=O)(Nc1ccc(SC(F)(F)F)cc1)Oc1ccc(F)cc1` (centres undefined), the outcome was inactive.

Consider `O=C(OC1CN2CCC1CC2)c1cccc(Cl)c1` (centres undefined), for which the call was inactive.

In the case of `Nc1ccc([As](=O)(O)c2ccc([N+](=O)[O-])cc2)cc1`, the result was inactive.

In the case of `C(Cc1nn[nH]n1)Cc1nn[nH]n1`, the molecule was classed as inactive.

On to `Cc1c(C(c2ccc3c(c2)OCO3)c2c(C)n(C)n(-c3ccccc3)c2=O)c(=O)n(-c2ccccc2)n1C.O=[N+]([O-])c1cc([N+](=O)[O-])c(O)c([N+](=O)[O-])c1`, for which the molecule was called inactive.

Take `O=[N+]([O-])c1cc([N+](=O)[O-])c(NCC2CCS(=O)(=O)C2)c([N+](=O)[O-])c1` (centres undefined): the molecule was called inactive.

With `Cc1cc(-c2cccc3ccccc23)c(C)cn1.O=[N+]([O-])c1cc([N+](=O)[O-])c(O)c([N+](=O)[O-])c1`, the molecule was classed as inactive.

For the molecule `O=[As](O)(c1ccccc1)c1ccc(O)cc1`, the molecule was classed as inactive.

`O=[N+]([O-])c1ncn(CCn2cnc([N+](=O)[O-])n2)n1`: the outcome was inactive.

For the molecule `O=[N+]([O-])c1ccc(OP2(=O)COCCO2)cc1` (centres undefined), the call was inactive.

Consider `CC(=O)NC(SC(=S)N(C)C)C(Cl)(Cl)Cl` (centres undefined), for which the molecule was classed as inactive.

In the case of `O=[N+]([O-])c1ccc(O)c(/C=N/Nc2ccc([N+](=O)[O-])cc2[N+](=O)[O-])c1`, the outcome was inactive.

For `COc1ccc(NP(C)(=O)Oc2ccccc2OC)cc1` (centres undefined), the molecule was classed as inactive.

As to `C[C@H]1OP(=O)(Oc2ccccc2)[C@H](O)[C@H](O)[C@H]1N=[N+]=[N-]` (some centres undefined), the outcome was inactive.

Turning to `O=P(Nc1nc2ccccc2s1)(c1ccccc1)c1ccccc1`, the molecule was called inactive.

For `CN(C)CCOC(=O)C(O)(c1ccccc1)C1CCCCC1` (centres undefined), the result was inactive.

Regarding `CN(C)C1(CNC(=O)c2ccc(Cl)c(S(N)(=O)=O)c2)CCCCC1`, the call was inactive.

Regarding `O=P(Nc1ccccn1)(c1ccc(Br)cc1)c1ccc(Br)cc1`, the result was inactive.

In the case of `COc1ccc(N)c([N+](=O)[O-])c1[N+](=O)[O-]`, the result was inactive.

For the molecule `COc1ccc(OP(C)(=O)Nc2cccc(Br)c2)cc1` (centres undefined), the molecule was called inactive.

As to `CN(C)C(=O)Oc1noc2ccccc12`, the molecule was called inactive.

Take `O=[N+]([O-])c1cc([N+](=O)[O-])c(OC2CCCCC2O)c([N+](=O)[O-])c1` (centres undefined): the call was inactive.

As to `O=c1c2cc([N+](=O)[O-])ccc2[nH]c2c([N+](=O)[O-])cc([N+](=O)[O-])cc12`, the call was inactive.

As to `CCCCCOc1ccc(NP(C)(=O)Oc2ccc(Cl)cc2Cl)cc1` (centres undefined), the outcome was inactive.

As for `Cc1ccccc1OP(=O)(Nc1ccccn1)Oc1ccccc1C`, the result was inactive.

Consider `CC(NC(=O)COC(=O)C(O)(c1ccccc1)c1ccccc1)c1ccccc1` (centres undefined), for which the molecule was classed as inactive.

Turning to `CP(=O)(Nc1ccccc1)Oc1ccc(F)cc1` (centres undefined), the molecule was classed as inactive.

As for `CCC(=O)N1C2C3N(C(=O)CC)C1C1N(C(=O)CC)C(C(N1C(=O)CC)N3C(=O)CC)N2C(=O)CC`, the molecule was classed as inactive.

Take `CCN(CC)CCCOC(=O)C(O)(c1ccccc1)C1CCCCC1` (centres undefined): the molecule was called inactive.

Regarding `O=C(OC1CN2CCC1CC2)c1ccccc1` (centres undefined), the result was inactive.

`Cc1ccc(OP(=O)(Nc2ccccn2)Oc2ccc(C)cc2)cc1`: the molecule was classed as inactive.

For `CC(=O)NC(SC(=S)N(CC(C)C)CC(C)C)C(Cl)(Cl)Cl` (centres undefined), the molecule was classed as inactive.

In the case of `COC(=O)c1cc2c(s1)N=C(c1ccccc1)N(C)P2(=O)N1CCOCC1` (centres undefined), the molecule was called inactive.

For `Cc1c([N+](=O)[O-])cc([N+](=O)[O-])c(Br)c1[N+](=O)[O-]`, the outcome was inactive.

As for `COc1ccc(OP(C)(=O)Nc2ccc(SC(F)(F)F)cc2)cc1` (centres undefined), the result was inactive.

With `CCOC(=O)c1ccc(NP(C)(=O)Oc2ccc(F)cc2)cc1` (centres undefined), the result was inactive.

In the case of `O=P1(N(CCCl)CCCl)OCCC2CCCCN21` (centres undefined), the call was inactive.

For `Cc1ccc(NP(=O)(Oc2cccc(C)c2)Oc2cccc(C)c2)nc1`, the molecule was called inactive.

Regarding `c1ccc(-c2nn[nH]n2)c(-c2nn[nH]n2)c1`, the molecule was called inactive.

Take `O=C(NC1CCS(=O)(=O)C1)NP(=S)(Oc1ccccc1)Oc1ccccc1` (centres undefined): the molecule was classed as inactive.

Consider `CCNC(=S)/N=C(\N)N[N+](=O)[O-]`, for which the molecule was classed as inactive.

For the molecule `CC(=O)Nc1ccc(Oc2c([N+](=O)[O-])cc([N+](=O)[O-])cc2[N+](=O)[O-])cc1`, the outcome was inactive.

Regarding `COc1ccc2c(c1O)-c1c(O)c(OC)cc3c1[C@H](C2)[N+](C)(C)CC3.O=[N+]([O-])c1cc([N+](=O)[O-])c([O-])c([N+](=O)[O-])c1[O-]`, the molecule was classed as inactive.

In the case of `CC(=O)Nc1ccc([As](=O)(O)O)c(O)c1`, the molecule was classed as inactive.

For `C[C@@H]1C=CCP(=O)(Oc2ccccc2)O1` (some centres undefined), the molecule was classed as inactive.

In the case of `C[C@H]1OP(=O)(Oc2ccccc2)C[C@@H]2O[C@@H]21` (some centres undefined), the molecule was classed as inactive.

Regarding `O=C(OCCN1CCN(CCOCc2ccccc2)CC1)C(O)(c1ccccc1)c1ccccc1`, the molecule was called inactive.

For `Cc1ccccc1CN(C)C(=O)COC(=O)C(O)(c1ccccc1)c1ccccc1`, the molecule was called inactive.

With `COC(=O)C1(C)COP(=O)(NCc2ccccc2)OC1` (centres undefined), the outcome was inactive.

Turning to `O=C(OC1CN2CCC1CC2)c1ccc([N+](=O)[O-])cc1` (centres undefined), the molecule was classed as inactive.

In the case of `N#C/C(=C\c1ccc(N(CCBr)CCBr)cc1)C(N)=O`, the molecule was called inactive.

As to `CC(=O)c1ccc(N2CC2c2ccncc2)cc1` (centres undefined), the outcome was inactive.

Consider `CC(C)c1ccc(OP(C)(=O)Nc2ccc(SC(F)(F)F)cc2)cc1` (centres undefined), for which the outcome was inactive.

With `CC(C)(C)C(=O)NC(Sc1ccccc1)C(Cl)(Cl)Cl` (centres undefined), the call was inactive.

Consider `CP(=O)(Nc1ccccc1F)Oc1ccccc1` (centres undefined), for which the molecule was classed as inactive.

As for `CCc1cc(O)c([N+](=O)[O-])c(C)c1[N+](=O)[O-]`, the call was inactive.

With `CCOc1ccc(C2=NCC(CBr)S2)cc1` (centres undefined), the call was inactive.

Turning to `O=P1(Nc2nc3ccc(Cl)cc3s2)COc2ccccc2O1` (centres undefined), the molecule was classed as inactive.

Consider `CCc1ccc(OP(C)(=O)O)cc1`, for which the result was inactive.

Take `COc1ccccc1OP(C)(=O)Nc1ccc(C)cc1C` (centres undefined): the result was inactive.

On to `CP(=O)(Nc1ccccn1)Oc1ccccc1` (centres undefined), for which the outcome was inactive.

For `O=C(NC(Sc1ccncn1)C(Cl)(Cl)Cl)c1ccccc1` (centres undefined), the molecule was called inactive.

As for `Oc1ccccc1CNc1ccccn1`, the outcome was inactive.

`O=[N+]([O-])c1cc([N+](=O)[O-])c(Nc2ccccn2)c([N+](=O)[O-])c1`: the molecule was classed as inactive.

For the molecule `CC(C)CC(=O)NC(Sc1ccc(Cl)cc1)C(Cl)(Cl)Cl` (centres undefined), the molecule was classed as inactive.

For `Nc1cc(N)c2nonc2c1[N+](=O)[O-]`, the molecule was called inactive.

Regarding `Cc1c(NP(C)(=O)Oc2ccc(C(C)C)cc2)c(=O)n(-c2ccccc2)n1C` (centres undefined), the outcome was inactive.

In the case of `CN(C)CCOC(=O)C(O)(c1ccccc1)C1CCCC1` (centres undefined), the outcome was inactive.

With `Clc1ccc(Cl)c(NC2=NCC(CBr)S2)c1` (centres undefined), the molecule was classed as inactive.

Regarding `CN1CCCC(OC(=O)C(c2ccccc2)c2ccccc2)C1` (centres undefined), the call was inactive.

On to `Cc1ccc(OP(=O)(Nc2nccs2)Oc2ccc(C)cc2)cc1`, for which the call was inactive.

As to `COc1ccc(OP(C)(=O)Nc2ccccn2)cc1` (centres undefined), the molecule was called inactive.

For `COc1ccccc1OP(=O)(Nc1ccc(C)cn1)Oc1ccccc1OC`, the result was inactive.

In the case of `Cc1ccc(N/C(=N/P(=O)(N2CCOCC2)N2CCOCC2)N2CCOCC2)cc1`, the molecule was called inactive.

For the molecule `COc1ccccc1OP(C)(=O)Nc1ccc(Br)cc1` (centres undefined), the result was inactive.

As for `CN(C(=O)Cc1ccc(Cl)c(Cl)c1)[C@H]1CCCC[C@H]1N1CCCC1`, the molecule was called inactive.

With `NC(=O)c1cc([N+](=O)[O-])cc([N+](=O)[O-])c1N`, the call was inactive.

Consider `CP(=O)(OCCOc1ccccc1)OCCOc1ccccc1`, for which the molecule was called inactive.

On to `CP(=O)(Nc1ccc(Cl)cc1Cl)Oc1ccccc1` (centres undefined), for which the result was inactive.

As to `CCCCCCCCCCCCCCCC1C[N+](C)(C)CCOP(C)(=O)O1` (centres undefined), the molecule was called inactive.

Take `Nc1cccc2ccc([As](=O)(O)O)cc12`: the molecule was called inactive.

With `CCN(N=Nc1nonc1N)c1nonc1N`, the call was inactive.

Turning to `COc1ccc(OP(C)(=O)Nc2ccccc2Br)cc1` (centres undefined), the call was inactive.

Turning to `CN(C(=O)Cc1ccc(Cl)c(Cl)c1)[C@H]1CCCC[C@@H]1N1CCCC1`, the molecule was called inactive.

`Cc1ccc(NP(=O)(Oc2ccccc2F)Oc2ccccc2F)nc1`: the outcome was inactive.

As to `COc1ccccc1OP(C)(=O)Nc1ccc(C)c(C)c1` (centres undefined), the molecule was called inactive.

For `CCOP(=O)(Nc1ccccc1)OCC`, the call was inactive.

Turning to `Cc1cc(SC(NC(=O)c2ccc(F)cc2)C(Cl)(Cl)Cl)ncn1` (centres undefined), the result was inactive.

Regarding `Cc1cc(C)cc(OP(C)(=O)Nc2cccc(C(F)(F)F)c2)c1` (centres undefined), the call was inactive.

With `O=P(Nc1nc2ccc(Cl)cc2s1)(c1ccccc1)c1ccccc1`, the molecule was classed as inactive.

On to `O=C1C(O)=C([N+](=O)[O-])C(=O)C(O)=C1[N+](=O)[O-]`, for which the call was inactive.

Regarding `CCCC1OP(N)(=O)OCC1CC` (centres undefined), the result was inactive.

Take `O=C(O)c1ccccc1[As](=O)(O)O`: the molecule was classed as inactive.

Turning to `CC(=O)Nc1ccc([As](=O)(O)O)cc1`, the molecule was classed as inactive.

Take `O=C(O)CNc1ccc([As](=O)(O)O)cc1`: the result was inactive.

Regarding `O=[N+]([O-])c1cccc(NC2=NCC(CBr)S2)c1` (centres undefined), the molecule was called inactive.

For `COC(=O)C1(C)COP(=O)(Nc2ccccc2)OC1` (centres undefined), the call was inactive.

As for `O=[N+]([O-])c1ncn(CCn2ncnc2[N+](=O)[O-])n1`, the molecule was called inactive.

Take `CC(C)(C)C(=O)NC(Sc1ccncn1)C(Cl)(Cl)Cl` (centres undefined): the molecule was classed as inactive.

In the case of `CP(=O)(OC12CC3CC(CC(C3)C1)C2)OC12CC3CC(CC(C3)C1)C2`, the molecule was classed as inactive.

Turning to `O=C(Nc1cc([As](=O)(O)O)ccc1O)c1ccccc1`, the outcome was inactive.

Take `CCOC(=O)c1ccc(NP(C)(=O)Oc2ccc(Cl)cc2)cc1` (centres undefined): the molecule was called inactive.

For `O=P1(N(CCCl)CCCl)OCCCS1` (centres undefined), the molecule was called inactive.

For the molecule `Nc1ccc2c(ccc3cccnc32)n1.O=[N+]([O-])c1cc([N+](=O)[O-])c(O)c([N+](=O)[O-])c1`, the result was inactive.

Take `CC1CCN(C(=O)Oc2c(Cl)cc(Cl)c3cccnc23)CC1`: the result was inactive.

Take `CN(C)C(=O)OCCc1n(C)cc[n+]1C`: the molecule was called inactive.

With `CC(C)=N/N=C(\N)N[N+](=O)[O-]`, the result was inactive.

On to `CN(C)C(=O)c1c([N+](=O)[O-])cc([N+](=O)[O-])cc1[N+](=O)[O-]`, for which the call was inactive.

Source of the values: PubChem BioAssay AID602410 (Johns Hopkins Ion Channel Center, 2012).
